Assay [1] concerns the target T1, hα3β4 AChR (Homo sapiens, UniProt P30926+P32297). In words: Equilibrium binding of [3H]ibogaine to hα3β4 AChR membranes. Particulars: resting (no ligand) state, Rosenthal-Scatchard plot.
Assay [2] has as its target T1, hα3β4 AChR. It counts as binding. Particulars: Desensitized state (1 µM (−)-nicotine), radioligand [3H]TCP 40 nM.
Assay [3] concerns the target T1, hα3β4 AChR. Type of assay: binding. The following applies: Desensitized state (1 µM (−)-nicotine), radioligand [3H]ibogaine 20 nM.
Assay [4] has as its target T1, hα3β4 AChR. Put plainly: Binding kinetics by non-linear chromatography on the CMAC-hα3β4 AChR column.

Protein sequences, listed by entry. Tags and fused reporters are not part of them. Residues count along the entry.
UniProt P30926, 22-498: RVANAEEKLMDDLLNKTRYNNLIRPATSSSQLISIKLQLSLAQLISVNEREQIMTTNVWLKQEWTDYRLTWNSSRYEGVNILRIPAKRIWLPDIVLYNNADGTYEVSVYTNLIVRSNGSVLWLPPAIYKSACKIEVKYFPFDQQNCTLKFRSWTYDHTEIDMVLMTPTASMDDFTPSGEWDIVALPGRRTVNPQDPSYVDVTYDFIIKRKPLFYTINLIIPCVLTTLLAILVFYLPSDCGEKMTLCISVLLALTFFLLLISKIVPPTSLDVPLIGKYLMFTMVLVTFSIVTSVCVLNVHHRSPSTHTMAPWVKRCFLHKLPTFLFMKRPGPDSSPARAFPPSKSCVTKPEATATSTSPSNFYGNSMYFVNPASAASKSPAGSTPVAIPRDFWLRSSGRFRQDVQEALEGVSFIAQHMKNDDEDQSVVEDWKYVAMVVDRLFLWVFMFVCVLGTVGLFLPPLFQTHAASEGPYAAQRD
UniProt P32297, 32-505: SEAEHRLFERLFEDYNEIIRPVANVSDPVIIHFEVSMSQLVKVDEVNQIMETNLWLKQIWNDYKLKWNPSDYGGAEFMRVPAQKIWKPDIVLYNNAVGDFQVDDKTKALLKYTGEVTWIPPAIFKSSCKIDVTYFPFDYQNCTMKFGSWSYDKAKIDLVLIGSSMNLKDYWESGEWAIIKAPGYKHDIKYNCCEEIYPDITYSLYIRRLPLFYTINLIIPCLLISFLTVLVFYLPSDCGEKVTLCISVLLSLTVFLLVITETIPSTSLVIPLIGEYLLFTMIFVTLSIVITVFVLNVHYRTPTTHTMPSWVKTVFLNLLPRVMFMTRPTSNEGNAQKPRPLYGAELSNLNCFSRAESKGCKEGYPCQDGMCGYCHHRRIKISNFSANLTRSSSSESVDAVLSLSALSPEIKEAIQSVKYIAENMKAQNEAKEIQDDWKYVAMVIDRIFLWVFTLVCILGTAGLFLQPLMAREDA

Like-named read-outs stand apart in the source and are kept apart here.

In general, Kd refers to the concentration at which binding is half-saturated. What is called IC50 is the concentration at which inhibition is half-maximal.

Turning to “7-ethyl-6,2,7,8,9,10,12,13-octahydro-2-methoxy-6,9-methano 5H-pyrido(1′,2′:1,2-azepine (4,5-)indole) [Ibogaine]”, the Kd at hα3β4 AChR [1] is ~500 nM. Further, the IC50 turned out to be 3600 ± 500 nM on hα3β4 AChR [2] and 370 ± 40 nM at hα3β4 AChR [3]. Further, on hα3β4 AChR [4], the “Ka (association constant)” value worked out at 3.84 ± 0.04 µM⁻¹. Besides, the “Kd = 1/Ka” value at hα3β4 AChR [4] (from kinetic results, non-linear chromatography) was ~ 0.3 µM.

(Values after article PMC4609575 (The international journal of biochemistry & cell biology, 2010).)
